# Laboratory results reported in PubChem BioAssay AID1346428 (National Center for Advancing Translational Sciences (NCATS), 2018).
# Chains of the proteins cited; added tags and fusions are not shown.
# UniProt O75388, whole entry: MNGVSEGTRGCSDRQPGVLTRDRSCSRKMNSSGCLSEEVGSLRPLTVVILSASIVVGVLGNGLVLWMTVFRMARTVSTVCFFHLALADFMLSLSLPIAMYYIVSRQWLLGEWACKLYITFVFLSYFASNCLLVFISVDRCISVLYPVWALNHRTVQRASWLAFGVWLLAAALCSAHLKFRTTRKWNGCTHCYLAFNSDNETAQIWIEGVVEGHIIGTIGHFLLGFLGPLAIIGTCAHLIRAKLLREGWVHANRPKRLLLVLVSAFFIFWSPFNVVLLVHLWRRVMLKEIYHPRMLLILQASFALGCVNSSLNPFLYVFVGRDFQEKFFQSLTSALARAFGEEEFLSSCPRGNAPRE
# The entries are a selection whose mix differs from that of the whole data set. Some of these compounds have results that are not shown, active ones among them. Activity calls are given as the source filed them.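 The calls were made as follows: active = activation of at least 60% and not above a set upper limit (about 1 call in 100 departs from these limits); inconclusive = activation of 40% to 60%, or above that upper limit; inactive = activation under 40%.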
# Molecular target: Probable G-protein coupled receptor 32 (Homo sapiens) (UniProt O75388)
# Assay: qHTS for Agonists of Human Resolvin D1 Receptor DRV1; also: 0% is about no effect
# Conditions: CHO-K1 GPR32 beta-arrestin PathHunter luminescence, 90 min; at 76.9 µM; active compounds read high; zero percent set by DMSO-only wells
row,Compound,activation
1,COc1ccc(C(=O)NCC2(N(C)C)CCCCC2)cc1Cl,inactive: -0.215%
2,CC(C)Oc1ccc(C(=O)NCC2(N(C)C)CCCCC2)cc1,inactive: 12.7%
3,Cc1cccc(C(=O)NCC2(N(C)C)CCCCC2)c1,inactive: -0.558%
4,COc1cc(C(=O)NCC2(N(C)C)CCCCC2)cc(OC)c1OC,inactive: 2.23%
5,CC(C)COc1ccc(C(=O)NCC2(N(C)C)CCCCC2)cc1,inactive: 0.787%
6,COc1cccc(C(=O)NCC2(N3CCOCC3)CCCCC2)c1,inactive: 3.2%
7,CN(C)C1(CNC(=O)c2ccccc2F)CCCCC1,inactive: 4.51%
8,CN(C)C1(CNC(=O)c2cccc(Cl)c2)CCCCC1,inactive: -1.21%
9,CCOc1cccc(C(=O)NCC2(N(C)C)CCCCC2)c1,inactive: 15%
10,CCCCOc1ccccc1C(=O)NCC1(N(C)C)CCCCC1,inactive: 9.55%
11,CN(C)C1(CNC(=O)c2ccccc2[N+](=O)[O-])CCCCC1,inactive: -7.48%
